Source: PubChem BioAssay AID1117361 (Southern Research Institute, 2015)

Protein sequences, listed by entry. Tags and fused reporters are not part of them. Lines headed by an entry give the natural chain unless they say otherwise; changes in a name come on top.
UniProt P04608: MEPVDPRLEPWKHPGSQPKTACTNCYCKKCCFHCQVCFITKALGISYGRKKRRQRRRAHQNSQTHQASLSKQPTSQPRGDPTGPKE

Target: Protein Tat (Human immunodeficiency virus type 1 group M subtype B (isolate HXB2)) (UniProt P04608)
Assay: HIV-1 Tat–TAR interaction blockers – biochemical, fluorescence polarization, FAM-labeled TAR RNA, counter-screen for Vif-APOBEC3G degradation inhibitor project, dose response (AID 1117361)
Settings: Tat-TAR RNA binding

Structure (SMILES): Oc1ccc(/C=N/NC(=S)Nc2cccnc2)c(O)c1O
- IC50: 12.9 µM
